{
  "sequences": {"note": "Chains of the proteins cited; added tags and fusions are not shown.", "UniProt Q99720, whole entry": "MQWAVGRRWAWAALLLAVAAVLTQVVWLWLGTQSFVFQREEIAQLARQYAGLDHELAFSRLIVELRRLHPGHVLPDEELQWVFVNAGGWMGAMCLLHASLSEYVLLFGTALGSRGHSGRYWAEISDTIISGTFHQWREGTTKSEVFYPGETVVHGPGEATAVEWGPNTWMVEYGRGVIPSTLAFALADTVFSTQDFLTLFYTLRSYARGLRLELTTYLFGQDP"},
  "source": "patent US20240254115A1",
  "about": "(ACONDICIONAMIENTO TARRASENSE, priority 2021, published 2024)",
  "origin": "cited, not measured here",
  "molecular_target": "sigma-1 (σ1) site (Homo sapiens, UniProt Q99720)",
  "settings": "background statement; cited from earlier work",
  "data": [
    {"substance": "(+)-SKF-10047", "values": [
      {"measurement": "affinity for the sigma-1 (σ1) site", "value": "nanomolar affinity"}
    ]}
  ]
}
